Measurements published in US10577360B2, “Arylamide derivatives having multimodal activity against pain” (ESTEVE PHARMACEUTICALS, S.A., priority 2016, dated 2020).

Sequences of proteins named here, by UniProt entry; tags and fusion partners are left off.
UniProt P35372, whole entry: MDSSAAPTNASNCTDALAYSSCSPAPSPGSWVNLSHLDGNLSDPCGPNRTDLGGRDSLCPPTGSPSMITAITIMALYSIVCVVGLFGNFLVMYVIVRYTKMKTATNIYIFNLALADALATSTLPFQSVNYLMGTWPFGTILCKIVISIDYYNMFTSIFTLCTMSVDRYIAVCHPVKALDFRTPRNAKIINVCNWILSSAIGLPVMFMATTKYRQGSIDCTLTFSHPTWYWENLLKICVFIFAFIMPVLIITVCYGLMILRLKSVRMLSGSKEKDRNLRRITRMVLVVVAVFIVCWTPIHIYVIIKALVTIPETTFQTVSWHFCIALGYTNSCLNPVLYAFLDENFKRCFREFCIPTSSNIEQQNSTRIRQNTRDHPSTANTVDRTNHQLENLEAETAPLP

Target: human μ-opioid receptor (Homo sapiens (Human), UniProt P35372)
Test: Human μ-opioid receptor radioligand assay ([3H]-DAMGO binding)
Conditions: read-out: μ (Ki), transfected CHO-K1 cell membranes

| SMILES | Ki [nM] |
| --- | --- |
| Cc1nnc(-c2cccc(-n3ccc(N(C(=O)c4cccc(O)c4)C4CCNCC4)n3)c2)o1 | > 500 |
| Cc1nnc(-c2cccc(-n3ccc(N(C(=O)c4cccc(O)c4)C4C[C@@H](C)N[C@@H](C)C4)n3)c2)o1 (stereo partly shown) | > 500 |
| CN1CCCC(N(C(=O)c2cccs2)c2ccn(-c3ccccc3)n2)CC1 (stereo not shown) [Example 39, N-(1-Methylazepan-4-yl)-N-(1-phenyl-1H-pyrazol-3-yl)thiophene-2-carboxamide] | > 500 |
| O=C(c1cccs1)N(c1ccn(-c2ccccc2)n1)C1CCCNC1 (stereo not shown) [Example 53, N-(1-Phenyl-1H-pyrazol-3-yl)-N-(piperidin-3-yl)thiophene-2-carboxamide] | > 500 |
| O=C(c1cccs1)N(CCNCc1ccccc1)c1ccn(-c2ccccc2)n1 [Example 55, N-[2-(Benzylamino)ethyl]-N-(1-phenyl-1H-pyrazol-3-yl)thiophene-2-carboxamide] | < 100 |
| O=C(c1cccs1)N(CCCNCc1ccccc1)c1ccn(-c2ccccc2)n1 [Example 56, N-[3-(Benzylamino)propyl]-N-(1-phenyl-1H-pyrazol-3-yl)thiophene-2-carboxamide] | < 100 |
| CNCCN(C(=O)c1cccs1)c1ccn(-c2ccccc2)n1 [Example 57, N-[2-(Methylamino)ethyl]-N-(1-phenyl-1H-pyrazol-3-yl)thiophene-2-carboxamide] | < 100 |
| CN(CCN(C(=O)c1cccs1)c1ccn(-c2ccccc2)n1)Cc1ccccc1 [Example 61, N-{2-[Benzyl(methyl)amino]ethyl}-N-(1-phenyl-1H-pyrazol-3-yl)thiophene-2-carboxamide] | < 100 |
| CN(CCCN(C(=O)c1cccs1)c1ccn(-c2ccccc2)n1)Cc1ccccc1 [Example 62, N-{3-[Benzyl(methyl)amino]propyl}-N-(1-phenyl-1H-pyrazol-3-yl)thiophene-2-carboxamide] | < 100 |
| CN1CCCC(N(C(=O)c2cccs2)c2ccn(-c3ccccc3)n2)C1 (stereo not shown) [Example 67, N-(1-Methylpiperidin-3-yl)-N-(1-phenyl-1H-pyrazol-3-yl)thiophene-2-carboxamide] | > 500 |
| CCNCCN(C(=O)c1cccs1)c1ccn(-c2ccccc2)n1 [Example 68, N-[2-(Ethylamino)ethyl]-N-(1-phenyl-1H-pyrazol-3-yl)thiophene-2-carboxamide] | 100 to 500 |
| CN(Cc1ccccc1)C1CCC(N(C(=O)c2cccs2)c2ccn(-c3ccccc3)n2)CC1 (stereo not shown) [Example 128, N-{4-[Benzyl(methyl)amino]cyclohexyl}-N-(1-phenyl-1H-pyrazol-3-yl)thiophene-2-carboxamide] | 100 to 500 |
| Cc1nnc(-c2cccc(-n3ccc(N(C(=O)c4cccs4)[C@H]4CC[C@H](N(C)Cc5ccccc5)CC4)n3)c2)o1 [Example 151, N-{(1r,4r)-4-[Benzyl(methyl)amino]cyclohexyl}-N-{1-[3-(5-methyl-1,3,4-oxadiazol-2-yl)phenyl]-1H-pyrazol-3-yl}thiophene-2-carboxamide] | > 500 |
| Cc1nnc(-c2cccc(-n3ccc(N(C(=O)c4cccs4)[C@H]4CC[C@@H](N(C)Cc5ccccc5)CC4)n3)c2)o1 [Example 152, N-{(1s,4s)-4-[Benzyl(methyl)amino]cyclohexyl}-N-{1-[3-(5-methyl-1,3,4-oxadiazol-2-yl)phenyl]-1H-pyrazol-3-yl}thiophene-2-carboxamide] | < 100 |
| Cc1nnc(-c2cccc(-n3ccc(N(C(=O)c4cccc(O)c4)[C@H]4CC[C@H](N(C)Cc5ccccc5)CC4)n3)c2)o1 [Example 153, N-{(1r,4r)-4-[Benzyl(methyl)amino]cyclohexyl}-3-hydroxy-N-{1-[3-(5-methyl-1,3,4-oxadiazol-2-yl)phenyl]-1H-pyrazol-3-yl}benzamide] | < 100 |
| Cc1nnc(-c2cccc(-n3ccc(N(C(=O)c4cccc(O)c4)[C@H]4CC[C@@H](N(C)Cc5ccccc5)CC4)n3)c2)o1 [Example 154, N-{(1s,4s)-4-[Benzyl(methyl)amino]cyclohexyl}-3-hydroxy-N-{1-[3-(5-methyl-1,3,4-oxadiazol-2-yl)phenyl]-1H-pyrazol-3-yl}benzamide] | < 100 |
